Measured values reported in ChEMBL document CHEMBL1145982, “Novel dihydrofolate reductase inhibitors. Structure-based versus diversity-based library design and high-throughput synthesis and screening” (J Med Chem, 2003).

Amino acid sequences for entries named in this document (tags omitted). Residues count along the entry.
UniProt P0A017, 2-159 limits assumed: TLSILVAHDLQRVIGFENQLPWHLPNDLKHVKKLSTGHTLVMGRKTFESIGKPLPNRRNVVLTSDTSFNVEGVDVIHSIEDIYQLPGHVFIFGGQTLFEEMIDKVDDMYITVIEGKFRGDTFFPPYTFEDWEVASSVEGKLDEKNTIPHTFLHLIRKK

The compounds below were run against Dihydrofolate reductase (Staphylococcus aureus, UniProt P0A017) (assay: Inhibitory activity against TMP-Resistance Dihydrofolate reductase from Staphylococcus aureus 157/4696).
Work on `CC1c2ccc3c4ccccc4n(C)c3c2CCN1Cc1cnc(N)nc1N` (stereo not given) yielded an IC50 of 6.8 µM. In the case of `CSc1c2n(c3cc(Cl)ccc13)CCN(Cc1cnc(N)nc1N)C2`, the IC50 is reported as 0.073 µM. `Nc1ncc(CN2CCc3c([nH]c4ccccc34)C2)c(N)n1` showed an IC50 of 7.8 µM. In the case of `CC1c2cc(Cc3ccccc3)c(-c3ccccc3)n2CCN1Cc1cnc(N)nc1N` (stereo not given), the IC50 is reported as 0.042 µM. For `COc1ccc2c(c1)CN(Cc1cnc(N)nc1N)CC2c1cccc([N+](=O)[O-])c1` (stereo not given), the IC50 was 3.2 µM.
